SMILES strings stand for the structures. This is a selection; strong and weak results do not stand in their true shares. Calls of active or inactive are those of the source.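 How the source made its calls: active means activation above its plate's cutoff, the mean activation of sample wells plus 3 SD; inactive means the rest.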

Protein sequences, listed by entry. Tags and fused reporters are not part of them.
UniProt P08173, whole entry: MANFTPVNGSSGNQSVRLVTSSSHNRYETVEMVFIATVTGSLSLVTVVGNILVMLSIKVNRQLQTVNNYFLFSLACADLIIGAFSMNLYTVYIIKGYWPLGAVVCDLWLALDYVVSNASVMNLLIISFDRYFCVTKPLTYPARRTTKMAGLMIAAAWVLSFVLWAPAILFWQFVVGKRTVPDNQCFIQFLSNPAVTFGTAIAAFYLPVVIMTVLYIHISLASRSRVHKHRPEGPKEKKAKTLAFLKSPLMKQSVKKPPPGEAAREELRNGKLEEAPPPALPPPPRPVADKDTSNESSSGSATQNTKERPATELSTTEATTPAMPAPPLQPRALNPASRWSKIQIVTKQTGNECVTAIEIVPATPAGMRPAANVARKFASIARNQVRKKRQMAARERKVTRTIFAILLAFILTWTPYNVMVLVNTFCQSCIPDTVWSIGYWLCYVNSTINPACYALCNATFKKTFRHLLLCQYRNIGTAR

This test addresses Muscarinic acetylcholine receptor M4 (Homo sapiens) (UniProt P08173). Briefly: human M4 muscarinic receptor positive allosteric modulators, primary screen, CHO-K1 cells, Fluo-8 calcium fluorescence (AID 624126). The conditions noted are these: CHO-K1 hM4/Gqi5, Fluo-8 calcium fluorescence, ACh EC20; at 3 µM; active compounds read high; 0% = ACh EC20, 100% = maximal ACh.
Regarding `O=C(O)c1cccc(Nc2c([N+](=O)[O-])cc([N+](=O)[O-])cc2[N+](=O)[O-])c1`, the activation was inactive: -4.54%.
Regarding `CC1=NCCc2c1[nH]c1ccccc21.O=[N+]([O-])c1cc([N+](=O)[O-])c(O)c([N+](=O)[O-])c1`, the activation was inactive: 3.41%.
Then `COc1ccccc1OP(C)(=O)Nc1cccc(Br)c1` (configuration not stated), with inactive: -3.56%; and `COc1cc(C(=O)NCC2(N3CCOCC3)CCCCC2)cc(Cl)c1OC(C)C`, with inactive: -4.67%.
In the case of `CCOC(=O)c1ccc(NP(C)(=O)Oc2cc(C)cc(C)c2)cc1` (configuration not stated), the activation was inactive: 0.17%.
The same measure for `Cc1cc(C)cc(OP(C)(=O)Nc2ccc(C)cc2C)c1` (configuration not stated): inactive: 5.06%.
The same measure for `Cc1ccc(C)c(NP(C)(=O)Oc2ccccc2)c1` (configuration not stated): inactive: 4.54%.
The same measure for `CP(=O)(Nc1cccc(Br)c1)Oc1ccccc1` (configuration not stated): inactive: -1.6%.
On to `Cc1cc(C)cc(OP(C)(=O)Nc2ccccn2)c1` (configuration not stated), for which the activation is inactive: 3.63%.
Take `O=[N+]([O-])c1cc([N+](=O)[O-])c(-n2nnc3ccccc32)c([N+](=O)[O-])c1`: the activation was inactive: 5.87%.
The same measure for `CN(Cc1cccnc1)C(=O)COc1ccc(Cl)c(Cl)c1.O=[N+]([O-])c1cc([N+](=O)[O-])c(O)c([N+](=O)[O-])c1`: inactive: 9.13%.
The same measure for `O=[N+]([O-])c1cc([N+](=O)[O-])c(-c2cnn(-c3ccccc3)c2)c([N+](=O)[O-])c1`: inactive: 7.62%.
In the case of `Cc1nc2ccc3ccccc3c2s1.O=[N+]([O-])c1cc([N+](=O)[O-])c(O)c([N+](=O)[O-])c1`, the activation is inactive: 3.51%.
Consider `CCOC(=O)C(CC)C1=NC(C)(C)Cc2ccccc21.O=[N+]([O-])c1cc([N+](=O)[O-])c(O)c([N+](=O)[O-])c1` (configuration not stated), for which the activation was inactive: -3.65%.
The same measure for `O=[N+]([O-])c1cc([N+](=O)[O-])c(Nc2nnnn2CCO)c([N+](=O)[O-])c1`: inactive: 1.66%.
The same measure for `CC1=C2N=C(C=C3N=C(C(C)=C4[N-][C@@](C)([C@@H]5N=C1[C@](C)(CCC(=O)NC[C@@H](C)OP(=O)([O-])O[C@H]1[C@@H](O)[C@@H](n6cnc7cc(C)c(C)cc76)O[C@@H]1CO)[C@H]5CC(N)=O)[C@@](C)(CC(N)=O)[C@@H]4CCC(N)=O)[C@@](C)(CC(N)=O)[C@@H]3CCC(N)=O)C(C)(C)[C@@H]2CCC(N)=O.[C-]#N.[Co+3]`: inactive: 3.83%.
Then `CN(C)C1(CNC(=O)c2ccc(S(C)(=O)=O)cc2)CCCCC1`, with inactive: 4.14%; and `CN1CCCCC1COC(=O)C1(O)c2ccccc2CCc2ccccc21` (configuration not stated), with inactive: -14.9%.
For `COc1ccccc1OP(C)(=O)Nc1c(C)cccc1C` (configuration not stated), the activation was inactive: 9.11%.
Then `COc1ccc(-c2ccccn2)cc1.O=[N+]([O-])c1cc([N+](=O)[O-])c(O)c([N+](=O)[O-])c1`, with inactive: 5.86%.
Then `CP(=O)(Nc1ccc(SC(F)(F)F)cc1)Oc1ccccc1` (configuration not stated), with inactive: -5.14%.
Then `CCCOc1ccc(NP(C)(=O)Oc2ccc(Cl)cc2)cc1` (configuration not stated), with inactive: 7.5%; and `CCCCOc1ccc(C(=O)NCC2(N3CCCCC3)CCCCC2)cc1OC`, with inactive: -1.85%; and `CP(=S)(Nn1cnnc1)Oc1ccccc1` (configuration not stated), with inactive: 9.68%.
Turning to `CP(=O)(Nc1ccccc1Br)Oc1ccccc1` (configuration not stated), the activation is inactive: 6.87%.
The same measure for `COc1ccccc1OP(C)(=O)Nc1ccccc1` (configuration not stated): inactive: 5.6%; for `CP(=O)(Oc1ccccc1)OC(c1ccccc1)C(F)(F)F` (configuration not stated): inactive: 0.48%; for `CP(=O)(Nc1ccc(SC(F)(F)F)cc1)Oc1ccc(Cl)cc1` (configuration not stated): inactive: -9.87%.
Regarding `Cc1ccc(Nc2c([N+](=O)[O-])cc([N+](=O)[O-])cc2[N+](=O)[O-])cc1`, the activation was inactive: 2.98%.
In the case of `Cc1cccc(C)c1OP(C)(=O)Nc1ccc(SC(F)(F)F)cc1` (configuration not stated), the activation was inactive: -5.49%.
The same measure for `Cc1cc(C)cc(OP(C)(=O)Nc2ccc(SC(F)(F)F)cc2)c1` (configuration not stated): inactive: 13.7%.
`CCc1ccc(OP(C)(=O)N2CCN(c3ccc([N+](=O)[O-])cc3)CC2)cc1` (configuration not stated): the activation is inactive: -12%.
The same measure for `CP(=O)(NC(=O)Nc1ccccc1)Oc1ccccc1` (configuration not stated): inactive: -2.4%; for `O=[N+]([O-])c1cc([N+](=O)[O-])c(O)c([N+](=O)[O-])c1.c1ccc(Oc2ccncc2)cc1`: inactive: -5.47%; for `CCOC(=O)c1ccc(NP(C)(=O)Oc2ccc(OC)cc2)cc1` (configuration not stated): inactive: 3.36%.
`CCOP(C)(=S)SCC(=O)NC(C)C(=O)O` (configuration not stated): the activation was inactive: 8.76%.
As to `CP(=O)(Nc1ccccn1)Oc1ccc(Cl)cc1` (configuration not stated), the activation is inactive: 5.66%.
Consider `CCN(CC)CCCOC(=O)C(O)(c1ccccc1)c1ccccc1`, for which the activation is inactive: -26.3%.
For `COc1ccccc1-c1ccccn1.O=[N+]([O-])c1cc([N+](=O)[O-])c(O)c([N+](=O)[O-])c1`, the activation is inactive: 20.5%.
Consider `COc1cc(C(=O)NCC2(N3CCOCC3)CCCCC2)ccc1OCC(C)C`, for which the activation was inactive: 12.6%.
Then `O=[N+]([O-])c1cc([N+](=O)[O-])c(Nc2cccnc2)c([N+](=O)[O-])c1`, with inactive: -11.2%; and `O=[N+]([O-])c1ccc2c(c1)C=Nc1ccccc1O2`, with inactive: 5.73%.
Then `Cc1cccc(C)c1OP(C)(N)=O` (configuration not stated), with inactive: 15.7%; and `CC(C)(C)c1ccc(OP(C)(=O)Nc2ccc(SC(F)(F)F)cc2)cc1` (configuration not stated), with inactive: -6.23%; and `Cc1ccc(NP(C)(=O)Oc2ccccc2)c(C)c1` (configuration not stated), with inactive: 2.95%.
As to `COc1ccccc1OP(C)(=O)Nc1ccc(C)cc1` (configuration not stated), the activation is inactive: 1.25%.
The same measure for `CCOC(=O)c1ccc(NP(C)(=O)Oc2ccccc2)cc1` (configuration not stated): inactive: 3.87%; for `Cc1cc(C)cc(OP(C)(N)=O)c1` (configuration not stated): inactive: 17.4%; for `COc1ccc(OP(C)(=O)Nc2cccc(F)c2)cc1` (configuration not stated): inactive: -1.53%.
The same measure for `COc1ccccc1OP(C)(=O)Nc1cc(Cl)ccc1C` (configuration not stated): inactive: -0.68%; for `Cc1cc(C)cc(OP(C)(=O)Nc2cccc(C(F)(F)F)c2)c1` (configuration not stated): inactive: 1.7%.
Then `O=C1C(O)=C([N+](=O)[O-])C(=O)C(O)=C1[N+](=O)[O-]`, with inactive: 2.1%.
